## Apparent affinities of Ab-14 variants for a coronavirus HR2 peptide

Values reported by Li et al. 2023, doi:10.1038/s41467-023-39022-2 (FLAb copy).

Binding partner: SARS-CoV-2 spike HR2 peptide, sequence PDVDLGDISGINAS.

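These sequences belong to a second round, designed from the earlier measurements on random variants of the parent. Group labels follow the data file (Ctrl: baseline library sampled from a position-specific scoring matrix, with some repeated check sequences; Rand: our label for a block that the file lists under HC and that is probably the random mutants of the ten best first-round binders; En: ensemble of fine-tuned language models; GP: Gaussian process model; GPLM: also part of the Gaussian process libraries; HC: hill climbing; Gen: genetic algorithm; Gibbs: Gibbs sampling; a sequence that several methods proposed may carry one label only). AlphaSeq pools MATa yeast showing the antibodies with MATalpha yeast showing the peptide. The frequency of each diploid, read from paired DNA barcodes, reflects how well the two displayed proteins bind. Scores were corrected for input abundance and mapped to Kd with protein pairs of known affinity run in the same pool. The assay was run in six technical replicates.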

Parent: Ab-14, a human scFv built as VH, a (GGGGS)3 linker, VL. Only the CDRs of the light chain vary.
VH: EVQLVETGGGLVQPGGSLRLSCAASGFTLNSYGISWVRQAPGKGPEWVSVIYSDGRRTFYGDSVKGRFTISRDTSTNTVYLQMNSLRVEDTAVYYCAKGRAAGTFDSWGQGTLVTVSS
VL: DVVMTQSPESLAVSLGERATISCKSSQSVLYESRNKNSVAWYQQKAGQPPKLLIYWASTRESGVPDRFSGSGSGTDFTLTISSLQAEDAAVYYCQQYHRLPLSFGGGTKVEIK

The parent's light chain CDRs are KSSQSVLYESRNKNSVA, WASTRES, QQYHRLPLS; each variant's own CDRs replace them letter for letter. Scale: log10 of Kd in nM, estimated from mating counts; low values are strong binders. An entry "nd" has no value in the source: the pair was not observed among the diploids in that replicate. This suggests poor binding but is not conclusive. Of ten entries with the parent sequence, four were seen in most replicates (averages 0.34 to 2.37), three in one and three in none, so single entries are noisy. In the paper, a design with two or fewer of six values counts as a poor binder. The range of this assay differs from that of the first round, and the authors advise against merging the two. As a blank, each scFv also met three strains without target: over all light chain designs, 4% of these pairings were detected, typically at 2.64 and seldom below 1.59. For each scFv, signals with the empty controls are counted beside the result, with their mean in brackets.

| CDR-L1 | CDR-L2 | CDR-L3 | group | log10 Kd (nM) by replicate | control signals |
|---|---|---|---|---|---|
| KVSQSWLLESRNKNSVA | EASTRQS | QQYHRLPLS | GP_HC | -0.25 / -0.20 / -0.53 / -0.48 / -0.51 / -0.34 | 1/18 (2.57) |
| KLSWSVQYDSRNKNSVA | WASTRES | QQYHMEPLW | Ctrl | nd / nd / nd / nd / nd / nd | 0/18 |
| KLMQSVLYESRNKNSVA | NASTREQ | QQYHRLPLS | GP_Gen | -0.24 / -0.28 / -0.40 / -0.45 / -0.25 / 0.04 | 0/18 |
| KLMGSMLYESRNKNSVA | NASTRES | QQYHRLPLS | GP_Gen | -0.27 / -0.41 / -0.36 / -0.44 / -0.24 / -0.15 | 1/18 (2.16) |
| KFLQSVLYESRNKNSVA | HASTRED | QQYHRLPLS | GP_HC | 0.11 / 0.05 / -0.02 / -0.37 / -0.01 / -0.02 | 0/18 |
| TISQSAQTESHNKNSVA | DLSVRGS | QQYHRLPLS | En_HC | 0.49 / 0.35 / 0.33 / 0.23 / 0.22 / 0.53 | 1/18 (2.73) |
| KQSQSVPMGERNKQSVA | MASYRES | QQYHRLPLS | GP_Gibbs | 1.83 / 1.90 / nd / nd / 3.81 / nd | 0/18 |
| KMSQSVLYESDNKNSVA | WVSTRES | QQYTRLPLS | Ctrl | 1.21 / 1.76 / 1.26 / 1.17 / 0.92 / 1.35 | 0/18 |
| KFQQSQLYESRMKNSVA | NASKRCS | QQYHRLPLK | GP_Gibbs | 1.96 / 1.40 / 1.20 / 1.36 / 1.78 / 1.90 | 1/18 (2.01) |
| KQSQSYLCESRNKNSVA | DASTRES | QQYHRLPLS | GP_HC | 0.15 / 0.69 / 0.38 / 0.95 / 0.46 / 0.57 | 0/18 |
| TLYGLSVSMSKNVNNVA | EMTTRED | QQYDRLPLI | En_Gen | nd / 0.49 / 0.54 / 0.83 / 1.25 / 0.37 | 0/18 |
| MIAQMLGWEQNKINSVA | QANLRTE | QQYDRLPLE | En_Gen | 1.18 / 0.69 / 0.73 / 0.68 / 0.82 / 0.72 | 1/18 (2.71) |
| KSGEGVLYESRNKNSVA | GASTRES | QQYHRLPLS | GPLM_HC | -0.22 / -0.17 / -0.32 / -0.28 / -0.37 / 0.01 | 0/18 |
| KLSQSHLYESRNKNNVA | DASTRES | QQYHRLPLS | GP_Gen | -0.61 / -0.70 / -0.68 / -0.84 / -0.74 / -0.65 | 0/18 |
| KSSQMVLYESRNKYSVA | WASTRES | QQYHRLPLS | Ctrl | nd / nd / nd / nd / nd / nd | 0/18 |
| KSQQSWLYESRNKNNVA | HASTRED | QQYARLPLS | GP_HC | 0.95 / 1.09 / 1.35 / 0.73 / 1.23 / 0.58 | 0/18 |
| KLQQSELYESRNKNSVA | NASQRMS | QQYHRLPLS | GP_Gen | 0.16 / 0.41 / 0.28 / 0.17 / 0.30 / 0.26 | 1/18 (2.38) |
| SMYPFDVAIGKGTQNVA | HVSVRAL | QQYDRLPLV | En_Gibbs | 1.12 / 1.24 / 1.17 / 0.54 / 1.25 / 0.85 | 0/18 |
| KWQQSVLYESRNKNSVA | HVSTRES | QQYHRLPLS | Ctrl | 0.87 / 1.13 / 1.19 / 1.05 / 1.08 / 0.72 | 2/18 (3.28) |
| KISQMVRVGSTHSNSIA | EEAKRAD | QQYHRLPLS | En_Gen | 0.42 / 0.29 / 0.12 / 0.51 / 0.52 / 0.45 | 2/18 (3.29) |
| KLSQSELYLSRNKNSVA | EASTRES | QQYHRLPLS | GP_Gen | -0.03 / -0.47 / -0.39 / -0.34 / -0.41 / -0.38 | 1/18 (2.43) |
| KVEQSVEYESRNKNSVA | NASTRES | QQYHRLPLS | GP_HC | -0.03 / 0.15 / -0.26 / -0.13 / -0.09 / 0.27 | 0/18 |
| KSSQSVLFESRNKVSVA | DASTRES | QQYHRLPLS | Rand | 0.11 / 0.21 / 0.23 / 0.07 / 0.07 / 0.28 | 4/18 (3.26) |
| KVSQCNGGESRMKNSVA | HASQRES | QQYHRLPLS | GP_Gibbs | 0.52 / 0.93 / 0.82 / 0.53 / 0.77 / 0.87 | 1/18 (3.01) |
| KFEQLWGPEQRNKNSVA | NASLRED | QQYHRLPLS | GP_Gibbs | 0.63 / 0.29 / 0.43 / 0.14 / 0.36 / 0.62 | 1/18 (3.30) |
| KMSQSVWMESRNKNSVA | EASTRES | QQYHRLPLS | GP_Gen | -0.16 / -0.32 / -0.27 / -0.52 / -0.33 / -0.11 | 2/18 (2.54) |
| KLRQSTGYESRNKDSIA | DNSTRGR | QQYHRLPLS | En_HC | 1.20 / 1.57 / 1.80 / 0.73 / 1.81 / 1.56 | 2/18 (3.06) |
| KSGQSVLYESRNKNSVA | NASTRES | QQYHRLPLS | Ctrl | nd / nd / 1.68 / 1.02 / 2.24 / 1.87 | 1/18 (1.24) |
| KLSEIAHFESRKKNSVA | ENSTREN | QQYDHLPLS | En_HC | nd / 1.80 / 1.29 / 1.76 / 1.20 / 1.45 | 0/18 |
| KISQMSTIESIHHNSVA | QTSTRES | QQYDRLPLS | En_HC | 1.14 / 0.73 / 0.59 / 0.82 / 0.79 / 1.34 | 1/18 (1.63) |
| MISQVLNTLTRTGNNVA | DLAERED | QQYFRLPLS | En_Gen | 0.02 / 0.04 / -0.04 / -0.10 / 0.19 / 0.25 | 1/18 (2.37) |
| KFSQMVNTLSVSKSAVA | EMSTRPE | QQYNRLPLS | En_Gen | 1.02 / 0.55 / 0.45 / 0.22 / 0.64 / 0.38 | 0/18 |
| KSEQSVLYESRDKNSVA | HASTRED | QQYHRLPLS | GP_HC | 0.40 / -0.05 / 0.13 / 0.09 / 0.01 / 0.14 | 1/18 (2.82) |
| KLSQSDLCESRNKNSVA | DASTRES | QQYHRLPLS | GP_HC | 0.36 / 0.45 / 0.28 / 0.47 / 0.26 / 0.29 | 1/18 (3.26) |
| KISQMVRVGATHNNSIA | EEATRAK | QQYHRLPLS | En_Gen | 1.42 / 0.71 / 0.66 / 0.46 / 0.66 / 0.52 | 1/18 (2.12) |
| KLPQSELYESRNKNSVA | NASTRLS | QQYHRLPLS | GP_Gen | -0.08 / -0.16 / -0.24 / -0.30 / -0.24 / -0.09 | 1/18 (2.97) |
| KCSQSVLYESPNKNSVA | WASTRES | QQYHRLPLS | Ctrl | 1.07 / 1.41 / 0.95 / 0.76 / 1.54 / 1.17 | 0/18 |
| KYSQLVLEESRNMNSVA | NASTREE | QQYHRLPLS | GP_Gibbs | 0.21 / 0.02 / 0.10 / -0.15 / 0.10 / 0.15 | 3/18 (1.98) |
| QLDWYNTYATASASNIA | DGAQRAN | QQYMRLPLM | En_Gibbs | -0.08 / -0.06 / -0.20 / -0.24 / -0.18 / -0.04 | 1/18 (2.13) |

A selection of 4 entries from above:

| CDR-L1 | CDR-L2 | CDR-L3 | group | log10 Kd (nM) by replicate | control signals |
|---|---|---|---|---|---|
| KSSQMVLYESRNKYSVA | WASTRES | QQYHRLPLS | Ctrl | nd / nd / nd / nd / nd / nd | 0/18 |
| KMSQSVLYESDNKNSVA | WVSTRES | QQYTRLPLS | Ctrl | 1.21 / 1.76 / 1.26 / 1.17 / 0.92 / 1.35 | 0/18 |
| KLMQSVLYESRNKNSVA | NASTREQ | QQYHRLPLS | GP_Gen | -0.24 / -0.28 / -0.40 / -0.45 / -0.25 / 0.04 | 0/18 |
| QLDWYNTYATASASNIA | DGAQRAN | QQYMRLPLM | En_Gibbs | -0.08 / -0.06 / -0.20 / -0.24 / -0.18 / -0.04 | 1/18 (2.13) |